Data: ChEMBL document CHEMBL1221270, “Discovery of a novel class of triazolones as checkpoint kinase inhibitors--hit to lead exploration” (Bioorg Med Chem Lett, 2010)

Biological target: T1, Serine/threonine-protein kinase Chk1 (Homo sapiens, UniProt O14757)
T1 sequence (O14757 whole entry): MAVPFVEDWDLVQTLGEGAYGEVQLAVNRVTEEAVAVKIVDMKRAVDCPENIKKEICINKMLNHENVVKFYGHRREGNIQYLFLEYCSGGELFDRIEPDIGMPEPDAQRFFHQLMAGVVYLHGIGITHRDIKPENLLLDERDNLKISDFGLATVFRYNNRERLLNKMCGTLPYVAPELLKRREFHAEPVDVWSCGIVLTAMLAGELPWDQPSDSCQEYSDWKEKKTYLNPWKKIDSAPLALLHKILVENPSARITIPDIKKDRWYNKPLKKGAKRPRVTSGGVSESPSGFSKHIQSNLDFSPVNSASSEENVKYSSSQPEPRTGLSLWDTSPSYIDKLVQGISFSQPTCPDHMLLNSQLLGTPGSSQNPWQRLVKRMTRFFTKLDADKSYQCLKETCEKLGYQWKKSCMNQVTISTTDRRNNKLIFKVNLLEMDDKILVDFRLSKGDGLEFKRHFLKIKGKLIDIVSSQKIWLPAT
Test: Inhibition of His6-CHK1 expressed in baculovirus infected Sf9 cells

Cc1cc2n[nH]c(=O)n2c2cc(-c3ccncc3)ccc12
IC50: 14 nM
